From PubChem BioAssay AID652025 (National Center for Advancing Translational Sciences (NCATS), 2013) come the findings set out here.

The entries are a selection whose mix differs from that of the whole data set. Calls of active or inactive are those of the source. No stated cut-off is given here; in the data, active means activation above about 50%; inconclusive means mostly about 30% to 49%; inactive means weaker than that.

A short description of this test: qHTS of IL-2 Activators. Further: 0% is about no effect. The conditions noted are these: IL-2 activation reporter assay, cell-based qHTS; hits give high values; in transgenic mouse T cells; stimulated with anti-CD3/CD4/CD28 beads. The method, boiled down: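 Unstimulated transgenic mouse T cells preincubated 60 min with compound, then stimulated with anti-CD3/anti-CD4-coated beads plus anti-CD28 for 18 h at 37 degrees C. IL-2 response read as EGFP and DsRed fluorescence by plate cytometry.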
In the case of `Nc1cccc([As](=O)(O)c2ccccc2)c1`, the activation was inactive: 1.06%.

For `NS(=O)(=O)c1cccc(NC(=O)COC(=O)C(O)(c2ccccc2)c2ccccc2)c1`, the activation was inactive: -0.185%.

As for `O=P1(Nc2ccc(Br)cn2)COc2ccccc2OC1`, the activation was inactive: 2.04%.

With `Cc1ccc(OCC(=O)OC2CN3CCC2CC3)cc1` (stereo unspecified), the activation is inactive: -1.67%.

In the case of `O=[As](O)(c1cccs1)c1cccs1`, the activation was inactive: 0.502%.

Turning to `Cc1ccc(C(=O)OC2CN3CCC2CC3)cc1` (stereo unspecified), the activation was inactive: -3.14%.

In the case of `CC1CCC(C(C)C)C(OP(=O)(Nc2ccccn2)c2ccccc2)C1` (stereo unspecified), the activation was inactive: -0.608%.

Take `Cc1nn(-c2ccccc2)c2c1P(=O)(N1CCOCC1)N(C)C(c1ccccc1)=N2` (stereo unspecified): the activation is inactive: 0.789%.

Turning to `CN(C)C1(CNC(=O)c2ccc(S(C)(=O)=O)cc2)CCCCC1`, the activation is inactive: 0.686%.

As for `CCCC1OP(=O)(Nc2ccccc2)OCC1CC` (stereo unspecified), the activation was inactive: 0.485%.

In the case of `O=C(/C=C/c1ccccc1)OC1CN2CCC1CC2` (stereo unspecified), the activation was inactive: -5.6%.

Consider `COc1ccccc1CNC(=O)COC(=O)C(O)(c1ccccc1)c1ccccc1`, for which the activation is inactive: 1.92%.

With `CN(C(=O)Cc1ccc(Cl)c(Cl)c1)[C@@H]1CCCC[C@H]1N1CCCC1`, the activation was inactive: 0.969%.

As to `CC(C)/C=N\N=C(\N)N[N+](=O)[O-]`, the activation was inactive: -1.14%.

Turning to `CC1(CBr)Cn2c(nc3ccccc3c2=O)S1` (stereo unspecified), the activation was inactive: -0.0115%.

As for `CCOP(=O)(NC(=NC(C)c1ccccc1)NC(C)c1ccccc1)OCC` (stereo unspecified), the activation is inactive: -1.22%.

As for `CCC1=CC2Cc3nc4ccc(Cl)cc4c(N)c3C(C1)C2` (stereo unspecified), the activation was inactive: -3.45%.

On to `O=P1(Nc2ccccn2)COc2ccccc2OC1`, for which the activation was inactive: -1.91%.

Regarding `CN(CCCl)Cc1cc(Cl)c(NC2=NCCN2)c(Cl)c1`, the activation was inactive: -0.247%.

Turning to `CCOP(=O)(Nc1ccc(C)cn1)OCC`, the activation was inactive: -2.19%.

As to `CC(C)(C)C(=O)NC(Sc1ncccn1)C(Cl)(Cl)Cl` (stereo unspecified), the activation was inactive: -0.151%.

Take `Clc1n[nH]nc1-c1nn[nH][15n]1`: the activation was inactive: -0.169%.

As for `O=P1(N(CCCl)CCCl)NCCC(C(F)(F)F)O1` (stereo unspecified), the activation was inactive: -0.23%.

With `CSc1ccc(Nc2c([N+](=O)[O-])cc([N+](=O)[O-])cc2[N+](=O)[O-])cc1`, the activation was inactive: -2.45%.

For `O=C(OC1CN2CCC1CC2)c1cccc([N+](=O)[O-])c1` (stereo unspecified), the activation is inactive: -2.47%.

Take `CCOC(=O)c1ccc(NC(=O)C(C)(CCl)SC)cc1` (stereo unspecified): the activation was inactive: -0.816%.

On to `CCC(C)N(CC(C)C)C(=S)SC(NC(C)=O)C(Cl)(Cl)Cl` (stereo unspecified), for which the activation is inactive: -0.358%.

As to `COC(=O)C1(C)COP(=O)(N2CCCC2)OC1` (stereo unspecified), the activation is inactive: -0.281%.

Consider `COP1(=S)c2c(C)nn(CCC#N)c2N=C(c2ccc(F)cc2)N1C` (stereo unspecified), for which the activation was inactive: -2.53%.

With `O=C(O)C(=O)c1ccc(N(CCCl)CCCl)cc1`, the activation is inactive: -2.3%.

`O=C(Nc1ccncc1[N+](=O)[O-])c1ccc([N+](=O)[O-])cc1[N+](=O)[O-]`: the activation was inactive: 0.308%.

For the compound `O=C(COc1ccccc1)OC1CN2CCC1CC2` (stereo unspecified), the activation was inactive: -1.89%.

For `CCOC(=O)Nc1cccc([As](=O)(O)O)c1`, the activation is inactive: 0.166%.

Consider `Cc1cc(SC(NC=O)C(Cl)(Cl)Cl)ncn1` (stereo unspecified), for which the activation is inactive: 0.953%.

Turning to `O=P(Nc1ccccn1)(c1cccc2ccccc12)c1cccc2ccccc12`, the activation is inactive: 0.299%.

`O=[N+]([O-])c1ccc(Nc2ccc(Oc3ccc([N+](=O)[O-])cc3[N+](=O)[O-])cc2)c([N+](=O)[O-])c1`: the activation was inactive: -0.442%.

In the case of `O=C(O)C(O)c1ccc(N(CCCl)CCCl)cc1` (stereo unspecified), the activation is inactive: -2.43%.

For `CCOC(=O)Nc1ccc([As](=O)(O)O)c(O)c1`, the activation is inactive: 0.213%.

On to `CC1CCNP(=O)(N(CCCl)CCCl)O1` (stereo unspecified), for which the activation was inactive: 1.31%.

On to `COP(=O)(OC)N1CC1c1ccccc1` (stereo unspecified), for which the activation was inactive: -1.74%.

For the compound `Cc1cc(SC(NC(=O)c2ccccc2)C(Cl)(Cl)Cl)nc(C(C)C)n1` (stereo unspecified), the activation was inactive: -0.409%.

For the compound `CCCCOc1ccc(C(=O)NCC2(N3CCCCC3)CCCCC2)cc1OC`, the activation was inactive: -0.787%.

Regarding `ClCCSc1nnc(-c2cccnc2)o1`, the activation is inactive: -0.9%.

Turning to `CC(C)c1ccc(OP(=O)(Nc2ccccn2)Oc2ccccc2F)cc1` (stereo unspecified), the activation is inactive: 0.54%.

As for `COC(=O)C1(C)COP(=O)(N2CCCCCC2)OC1` (stereo unspecified), the activation is inactive: -4.04%.

In the case of `O=[N+]([O-])c1cc([N+](=O)[O-])c(-c2ccn[nH]2)s1`, the activation is inactive: 0.334%.

Take `CCN(CC)C(=S)SC(NC=O)C(Cl)(Cl)Cl` (stereo unspecified): the activation was inactive: 1.43%.

Turning to `O=C(OC1CN2CCC1CC2)c1cccc2[nH]cnc12` (stereo unspecified), the activation is inactive: 0.565%.

Take `CC(C)NC(=O)NP(=O)(Oc1ccccc1)Oc1ccccc1`: the activation is inactive: -1.04%.

As to `COc1cc(C(=O)NCC2(N3CCOCC3)CCCCC2)ccc1OCC(C)C`, the activation is inactive: -0.246%.

For `O=[N+]([O-])c1ccc(-c2cc([N+](=O)[O-])c(O)c([N+](=O)[O-])c2)cc1`, the activation was inactive: -0.338%.

On to `C[As](=O)(O)c1cccc(C(=O)O)c1`, for which the activation was inactive: -0.879%.

Regarding `O=[As](O)(c1ccc(O)cc1)c1ccccc1O`, the activation was inactive: 4.44%.

As for `Cc1ccc(OP(=O)(Nc2ccc([N+](=O)[O-])cn2)Oc2ccc(C)cc2)cc1`, the activation was inactive: -0.169%.

For the compound `[N-]=[N+]=NC1CCCCC1NC(=O)c1cc([N+](=O)[O-])cc([N+](=O)[O-])c1` (stereo unspecified), the activation is inactive: 0.292%.

Take `Cc1ccc2nc3c(c(C)c2c1)CC(C(Cl)Cl)S3` (stereo unspecified): the activation was inactive: -2.86%.

Take `O=[N+]([O-])c1cc(Oc2ccc([N+](=O)[O-])cc2C(F)(F)F)cc([N+](=O)[O-])c1`: the activation was inactive: -0.462%.

Take `COc1ccc(N/C(=N/P(=O)(N2CCOCC2)N2CCOCC2)N2CCOCC2)cc1`: the activation was inactive: 2.03%.

Turning to `Cc1c2c(nc3ccccc13)SC(C(Cl)Cl)C2` (stereo unspecified), the activation was inactive: 0.21%.

In the case of `Cc1cc(=O)[nH]c(N[N+](=O)[O-])n1`, the activation was inactive: -2.12%.

In the case of `O=C(OC1CN2CCC1CC2)C12CC3CC(CC(C3)C1)C2` (stereo unspecified), the activation is inactive: -1.75%.

`O=P1(N(CCCl)CCCl)Nc2ccccc2N1`: the activation is inactive: -0.446%.

For the compound `O=P1(N(CCCl)CCCl)OCCCN1CCCl` (stereo unspecified), the activation is inactive: -0.568%.

In the case of `COc1cc(I)ccc1[As](=O)(O)O`, the activation is inactive: -0.483%.

As to `COc1ccc2nc(NP(=O)(c3ccccc3)c3ccccc3)sc2c1`, the activation is inactive: -1.23%.

`O=C(NC(Sc1ccncn1)C(Cl)(Cl)Cl)c1ccccc1` (stereo unspecified): the activation was inactive: -0.817%.

For `Oc1ccccc1CNc1ccccn1`, the activation was inactive: -1.58%.

Turning to `CC(C)CC(=O)NC(Sc1ccc(Cl)cc1)C(Cl)(Cl)Cl` (stereo unspecified), the activation is inactive: -2.35%.

For the compound `Nc1cc(N)c2nonc2c1[N+](=O)[O-]`, the activation was inactive: -5.53%.

Consider `O=[N+]([O-])C1C(O)C(O)C([N+](=O)[O-])C(O)C1O` (stereo unspecified), for which the activation is inactive: -0.19%.

Take `Cc1ccc(N/C(=N/P(=O)(N2CCOCC2)N2CCOCC2)N2CCOCC2)cc1`: the activation was inactive: 0.152%.

Consider `CN(C(=O)Cc1ccc(Cl)c(Cl)c1)[C@H]1CCCC[C@H]1N1CCCC1`, for which the activation is inactive: 0.0783%.

Turning to `NC(=O)c1cc([N+](=O)[O-])cc([N+](=O)[O-])c1N`, the activation is inactive: 0.96%.

On to `Clc1ccc(Cl)c(NC2=NCC(CBr)S2)c1` (stereo unspecified), for which the activation was inactive: 0.256%.

For the compound `CN1CCCC(OC(=O)C(c2ccccc2)c2ccccc2)C1` (stereo unspecified), the activation was inactive: -0.916%.

In the case of `Cc1ccc(OP(=O)(Nc2nccs2)Oc2ccc(C)cc2)cc1`, the activation was inactive: -0.207%.

Regarding `COc1ccccc1OP(=O)(Nc1ccc(C)cn1)Oc1ccccc1OC`, the activation is inactive: -2.75%.

`Nc1cccc2ccc([As](=O)(O)O)cc12`: the activation was inactive: 0.54%.

For `CCN(N=Nc1nonc1N)c1nonc1N`, the activation was inactive: 0.423%.

As to `CN(C)P(=O)(N(C)C)n1c(Nc2ccccc2)nnc1-c1ccccc1`, the activation was inactive: -2.67%.

Take `O=P(Nc1nc2ccc(Cl)cc2s1)(c1ccccc1)c1ccccc1`: the activation is inactive: 2.21%.

Take `CCCC1OP(N)(=O)OCC1CC` (stereo unspecified): the activation is inactive: -0.0479%.

Take `O=C(O)c1ccccc1[As](=O)(O)O`: the activation was inactive: -0.741%.

On to `CC(=O)Nc1ccc([As](=O)(O)O)cc1`, for which the activation is inactive: -3.38%.

On to `CN(C(=O)Cc1ccc(Cl)c(Cl)c1)[C@H]1CCCC[C@@H]1N1CCCC1`, for which the activation is inactive: 0.662%.

As for `Cc1ccc(NP(=O)(Oc2ccccc2F)Oc2ccccc2F)nc1`, the activation is inactive: -3.27%.

`CCOP(=O)(Nc1ccccc1)OCC`: the activation is inactive: -0.495%.

With `Cc1cc(SC(NC(=O)c2ccc(F)cc2)C(Cl)(Cl)Cl)ncn1` (stereo unspecified), the activation is inactive: -0.645%.

For the compound `O=[N+]([O-])c1ncn(CCn2ncnc2[N+](=O)[O-])n1`, the activation is inactive: 0.192%.

Take `CC(C)(C)C(=O)NC(Sc1ccncn1)C(Cl)(Cl)Cl` (stereo unspecified): the activation is inactive: 2.61%.

With `O=C(O)CNc1ccc([As](=O)(O)O)cc1`, the activation is inactive: 0.889%.

In the case of `O=[N+]([O-])c1cccc(NC2=NCC(CBr)S2)c1` (stereo unspecified), the activation is inactive: -0.022%.

Consider `COC(=O)C1(C)COP(=O)(Nc2ccccc2)OC1` (stereo unspecified), for which the activation is inactive: -1.8%.

As for `O=P1(N(CCCl)CCCl)OCCCS1` (stereo unspecified), the activation was inactive: 1.07%.

Take `O=C(Nc1cc([As](=O)(O)O)ccc1O)c1ccccc1`: the activation was inactive: -1.82%.

For `CCN(/C(=N/P(=O)(N1CCOCC1)N1CCOCC1)N1CCOCC1)c1ccc(OC)cc1`, the activation was inactive: 2%.

`C[N+]1=C2C=CC=CC=C2SC12C([N+](=O)[O-])=CC([N+](=O)[O-])=C[C-]2[N+](=O)[O-]` (stereo unspecified): the activation was inactive: -1.02%.

With `Nc1ccc([As](=O)(O)c2ccc(N)cc2)cc1`, the activation is inactive: -2.89%.

As to `c1cc(-c2nn[nH]n2)ccc1-c1nn[nH]n1`, the activation was inactive: -0.027%.

In the case of `CC1CCN(C(=O)Oc2c(Cl)cc(Cl)c3cccnc23)CC1`, the activation is inactive: -0.858%.

On to `CN(C)C(=O)OCCc1n(C)cc[n+]1C`, for which the activation was inactive: -4.12%.
